Assay results: US20110151020A1, “ACTIVE SUBSTANCE COMBINATION WITH GEMCITABINE FOR THE TREATMENT OF EPITHELIAL CANCER” (priority 2008, published 2011)

What was measured:
pancreatic cancer cells = experiment: Transmigration assay (modified Boyden chamber, SDF-1 stimulus); type: cell-based, human; conditions: SDF-1 as migratory stimulus
[1] = system: pretreated Qtracker-labeled pancreatic cancer cells; experiment: Systemic infusion assay of pretreated cells (lung metastasis); type: in vivo, mice; conditions: cells pretreated in vitro, systemically infused; lungs scanned
Text: Recently, the inventors have shown that the chemokine receptor CXCR4 and its specific lig- and Stromal-Derived Factor-1 (SDF-1) plays a pivotal role in metastasis of pancreatic CSC (see Hermann et al., 2007, supra). […] Pretreated and Qtracker-labeled cells were systemically infused. Seeded cells were tracked using near infrared scanning of the lungs as the primary target organ. Positive signals were confirmed by histological analysis.
In vitro treatment of pancreatic cancer cells. […] For the evaluation of the in vivo tumorigenicity, […] L3.6pl cells were pretreated with the respective regimen and the remaining viable cells were orthotopically implanted into the pancreas of nude mice and evaluated on day 35. For the systemic infusion assay, cells were labelled with the Qtracker 800 labelling kit (Invitrogen) according to the manufacturer's instructions, and 5×10^5 cells were injected intravenously into mice. After 4 weeks, explanted lungs were scanned for metastases with a near-infrared imaging platform (Odyssey, Li-cor, Lincoln, Nebr.). Positive signals were verified by histology (H&E staining).

Gli1 = experiment: Hedgehog activation / Gli expression (rtPCR); type: cell-based, human

CC1=C2C[C@H]3[C@@H](CC=C4C[C@@H](O)CC[C@@]43C)[C@@H]2CC[C@]12O[C@@H]1C[C@H](C)CN[C@H]1[C@H]2C [Cyclopamine, 11-deoxojervine]
migratory activity (pancreatic cancer cells): strong reduction
metastatic activity in vivo [1]: tended to be reduced
decrease in hedgehog activation (Gli1): 40%
